# Assay results from ChEMBL document CHEMBL4251566 (Eur J Med Chem, 2018).
# Assays:
# [1] = biological target: T1, Tyrosine-protein kinase JAK3 (Homo sapiens) (UniProt P52333); experiment: Potency index, ratio of spebrutinib IC50 to compound IC50 for inhibition of recombinant N-terminal GST-tagged human JAK3 (781 to end residues) expressed in baculovirus infected Sf9 insect cells
# T1 sequence (whole entry): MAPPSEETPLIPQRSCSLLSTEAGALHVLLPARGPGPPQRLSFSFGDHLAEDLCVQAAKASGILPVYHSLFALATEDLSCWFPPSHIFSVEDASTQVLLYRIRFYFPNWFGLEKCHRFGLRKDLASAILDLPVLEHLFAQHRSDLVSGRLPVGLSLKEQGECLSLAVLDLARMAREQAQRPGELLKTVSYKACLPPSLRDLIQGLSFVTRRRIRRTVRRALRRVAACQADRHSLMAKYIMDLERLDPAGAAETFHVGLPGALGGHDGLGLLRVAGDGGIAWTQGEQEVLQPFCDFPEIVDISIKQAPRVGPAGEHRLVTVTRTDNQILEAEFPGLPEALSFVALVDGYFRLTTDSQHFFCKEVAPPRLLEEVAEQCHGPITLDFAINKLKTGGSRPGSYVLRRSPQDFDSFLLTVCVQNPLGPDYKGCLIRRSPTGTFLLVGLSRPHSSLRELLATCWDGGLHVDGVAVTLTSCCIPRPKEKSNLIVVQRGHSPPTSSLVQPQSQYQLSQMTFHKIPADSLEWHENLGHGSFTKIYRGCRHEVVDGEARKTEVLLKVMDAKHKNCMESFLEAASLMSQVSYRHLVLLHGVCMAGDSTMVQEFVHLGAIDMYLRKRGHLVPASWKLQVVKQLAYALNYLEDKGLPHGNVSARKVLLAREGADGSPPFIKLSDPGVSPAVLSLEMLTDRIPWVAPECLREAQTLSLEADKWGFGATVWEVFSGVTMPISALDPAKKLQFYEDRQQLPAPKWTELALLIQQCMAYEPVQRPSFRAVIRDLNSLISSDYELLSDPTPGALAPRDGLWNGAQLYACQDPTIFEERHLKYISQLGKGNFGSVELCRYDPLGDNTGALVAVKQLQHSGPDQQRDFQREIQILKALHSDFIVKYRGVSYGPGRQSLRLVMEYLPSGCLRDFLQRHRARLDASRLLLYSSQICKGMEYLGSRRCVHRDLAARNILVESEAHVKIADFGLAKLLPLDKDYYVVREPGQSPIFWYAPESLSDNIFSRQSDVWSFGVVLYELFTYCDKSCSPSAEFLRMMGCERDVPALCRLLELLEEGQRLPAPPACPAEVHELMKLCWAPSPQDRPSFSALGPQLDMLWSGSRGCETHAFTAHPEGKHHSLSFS
# [2] = biological target: T1, Tyrosine-protein kinase JAK3 (Homo sapiens); experiment: Potency index, ratio of ibrutinib IC50 to compound IC50 for inhibition of recombinant N-terminal GST-tagged human JAK3 (781 to end residues) expressed in baculovirus infected Sf9 insect cells
# [3] = tested on: Ramos; experiment: Antiproliferative activity against human Ramos cells after 72 hrs by CCK-8 assay; type: functional, cell-based
Compound,Ratio IC50 [1],Ratio IC50 [2],Activity [3]
C=CC(=O)Nc1cccc(Nc2nc(Nc3ccc(OC)c(OCCCN4CCOCC4)c3)ncc2Cl)c1,40,17,
C=CC(=O)Nc1cccc(Nc2nc(Nc3ccc(OCCCN4CCOCC4)cc3)ncc2Cl)c1,40,17,Dose-dependent effect
C=CC(=O)Nc1cccc(Nc2nc(Nc3ccc(OCC(=O)N4CCOCC4)c(Cl)c3)ncc2Cl)c1,,,Dose-dependent effect

# Now from value to compound, other results behind:
Ratio IC50 [1],Ratio IC50 [2],Compound,Activity [3]
40,17,C=CC(=O)Nc1cccc(Nc2nc(Nc3ccc(OCCCN4CCN(CC)CC4)c(Cl)c3)ncc2Cl)c1,
40,17,C=CC(=O)Nc1cccc(Nc2nc(Nc3ccc(OC)c(OCCCN4CCOCC4)c3)ncc2F)c1,
